This passage reports IC50 results from US10988485B2 (Amgen Inc., priority 2018, dated 2021).

Chains of the proteins cited; added tags and fusions are not shown. Residues count along the entry.
UniProt P01116, 1-169 isoform 2 C118A/G12C limits assumed: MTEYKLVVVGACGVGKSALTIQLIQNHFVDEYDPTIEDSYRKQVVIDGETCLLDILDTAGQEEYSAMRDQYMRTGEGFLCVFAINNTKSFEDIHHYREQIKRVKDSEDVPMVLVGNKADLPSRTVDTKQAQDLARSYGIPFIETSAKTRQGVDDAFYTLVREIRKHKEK

Test [1] addresses GDP-bound KRAS protein (aa 1-169), containing both G12C and C118A amino acid substitutions (Homo sapiens, UniProt P01116, C118A/G12C). The test can be described thus: Coupled Nucleotide Exchange Assay (SOS-mediated nucleotide exchange, AlphaScreen). The following applies: read-out: Coupled Exchange IC50; compound pre-incubation either 5 min or 2 hours (not stated per compound); SOS and GTP added, cRAF AlphaScreen read-out. How it is done: (§1) For compounds in Table 6, the following assay conditions were employed:
Coupled Nucleotide Exchange Assay: Purified GDP-bound KRAS protein (aa 1-169), containing both G12C and C118A amino acid substitutions and an N-terminal His-tag, was pre-incubated in assay buffer (25 mM HEPES pH 7.4, 10 mM MgCl2, and 0.01% Triton X-100) with a compound dose-response titration for either 5 min or 2 hours (see Table 15). Following compound pre-incubation, purified SOS protein (aa 564-1049) and GTP (Roche 10106399001) were added to the assay wells and incubated for an additional 30 min (for 5 min compound pre-incubation) or 1 hour (for 2 hour compound pre-incubation). To determine the extent of inhibition of SOS-mediated nucleotide exchange, purified GST-tagged cRAF (aa 1-149), nickel chelate AlphaLISA acceptor beads (PerkinElmer AL108R), and AlphaScreen glutathione donor beads (PerkinElmer 6765302) were added to the assay wells and incubated for 10 minutes. The assay plates were then read on a PerkinElmer EnVision Multilabel Reader, using AlphaScreen® technology, and data were analyzed using a 4-parameter logistic model to calculate IC50 values.
(Bead proximity is the source of the signal in Alpha formats.)

Test [2] relates to Phosphorylation of ERK1/2 in MIA PaCa-2 cells. The test can be described thus: Phospho-ERK1/2 MSD Assay. The following applies: read-out: p-ERK IC50 (MIA-PaCa-2), compound 2 or 4 hours, then 10 ng/mL EGF for 10 min. As to the method:
as §1
Phospho-ERK1/2 MSD Assay: MIA PaCa-2 (ATCC® CRL-1420™) cells were cultured in RPMI 1640 Medium (ThermoFisher Scientific 11875093) containing 10% fetal bovine serum (ThermoFisher Scientific 16000044) and 1× penicillin-streptomycin-glutamine (ThermoFisher Scientific 10378016). Sixteen hours prior to compound treatment, MIA PaCa-2 cells were seeded in 96-well cell culture plates at a density of 25,000 cells/well and incubated at 37° C., 5% CO2. A compound dose-response titration was diluted in growth media, added to appropriate wells of a cell culture plate, and then incubated at 37° C., 5% CO2 for 2 or 4 hours. Following compound treatment, cells were stimulated with 10 ng/mL EGF (Roche 11376454001) for 10 min, washed with ice-cold Dulbecco's phosphate-buffered saline, no Ca^2+ or Mg^2+ (ThermoFisher Scientific 14190144), and then lysed in RIPA buffer (50 mM Tris-HCl pH 7.5, 1% Igepal, 0.5% sodium deoxycholate, 150 mM NaCl, and 0.5% sodium dodecyl sulfate) containing protease inhibitors (Roche 4693132001) and phosphatase inhibitors (Roche 4906837001). […] Assay plates were read on a Meso Scale Discovery Sector imager 6000, and data were analyzed using a 4-parameter logistic model to calculate IC50 values.

Regarding `C=CC(=O)N1C[C@H](C)N(C2=NS(=O)(=O)N(c3ccc(CN(C)C)cc3C(C)(C)C)c3nc(-c4ccccc4F)c(Cl)cc32)C[C@H]1C`, the values for the IC50 in test [1] and in test [2] were 80 nM and 70 nM, respectively.
